Source: paper PMC8616928, “Versatile selective evolutionary pressure using synthetic defect in universal metabolism” (Nature Communications, 2021)

Assays:
[1] = test system: O=C(O)c1ccccc1[N+](=O)[O-]; experiment: purified protein; details: pH 7.4, 37 °C, saturating cofactor, anaerobic, pH 7.4
CC(C)O = experiment: purified protein; details: NAD+ saturating, pH 8.8, 37 °C, pH 8.8

Substance | Km [1] | kcat [1] | Km (CC(C)O) | kcat (CC(C)O)
EntNfsB (Enterobacter cloacae; F124A/S40A/T41I) | 808 µM | 0.473 s⁻¹ | – | –
TBADH (Thermoanaerobacter brockii; G198S/R200P/S199K/Y218V) | – | – | 3740 ± 540 µM | 1.87 ± 0.095 s⁻¹
